# Antibody variant affinities, Ab-14 heavy chain, assay B

Source: Li et al. 2023 (doi:10.1038/s41467-023-39022-2), MIT Lincoln Laboratory and A-Alpha Bio; data file from the FLAb repository.

The target is the same throughout: PDVDLGDISGINAS, from the HR2 region of SARS-CoV-2 spike.

Parent: Ab-14, a human scFv built as VH, three GGGGS repeats, VL. Only the CDRs of the heavy chain vary.
VH: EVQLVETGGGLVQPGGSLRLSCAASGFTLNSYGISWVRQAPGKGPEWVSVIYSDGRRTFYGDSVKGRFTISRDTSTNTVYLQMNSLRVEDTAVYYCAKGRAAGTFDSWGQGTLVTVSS
VL: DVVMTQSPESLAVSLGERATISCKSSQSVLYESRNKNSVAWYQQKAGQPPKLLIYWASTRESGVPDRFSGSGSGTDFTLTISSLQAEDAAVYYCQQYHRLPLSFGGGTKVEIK

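The variants were designed computationally from a first round of random CDR variants and then made and measured. Group labels follow the data file (Ctrl: baseline library sampled from a position-specific scoring matrix, with some repeated check sequences; En: ensemble of fine-tuned language models; GP: Gaussian process model; GPLM: also part of the Gaussian process libraries; HC: hill climbing; Gen: genetic algorithm; Gibbs: Gibbs sampling; a sequence that several methods proposed may carry one label only). AlphaSeq pools MATa yeast showing the antibodies with MATalpha yeast showing the peptide. The frequency of each diploid, read from paired DNA barcodes, reflects how well the two displayed proteins bind. The ratio of observed to expected reads was calibrated, replicate by replicate, on BCL2-family standards whose Kd was known from biolayer interferometry. Mating was done six times.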

Each variant is given by its three heavy chain CDRs, as the data file delimits them; those of the parent are GFTLNSYGIS, VIYSDGRRTFYGDSVK, GRAAGTFDS.
Variants here have at most six changes.
Numbers give log10(Kd / nM), so 0 is 1 nM and 3 is 1 µM. Smaller is tighter.
"n.d." marks a missing value. The strain was present, yet no cells mated with the target were sequenced in that replicate, which points to weak or no binding.
As a blank, each scFv also met three strains without target: over all heavy chain designs, 1% of these pairings were detected, typically at 2.08 and seldom below 0.84.
The authors averaged sequences with at least three values out of six and counted those with two or fewer as poor binders.
The range of this assay differs from that of the first round, and the authors advise against merging the two.

| CDR-H1 | CDR-H2 | CDR-H3 | group | log10 Kd (nM) by replicate |
|---|---|---|---|---|
| GFTLNSYGIS | VIYSDGRRTFYGDSVK | GRVAGTFDK | GPLM_Gen | n.d. 0.34 n.d. n.d. 1.37 0.13 |
| GFTLQSYGIS | VIYSDGRRTFYSDSVK | GGAAGTFDS | Ctrl | n.d. n.d. n.d. 3.53 n.d. n.d. |
| GFTLDSYGIS | VIYSDGRRTFYGDKVK | GRAAGTFDV | GP_HC | 1.41 0.97 1.40 1.20 1.07 1.66 |
| GFTLNSYGIS | VIYSDGYRTFYGDSVK | GRATDTFDT | Ctrl | 1.09 -0.24 -0.07 -0.42 -0.19 0.15 |
| GFTLNSYGIS | VIYADGRRTFYLDFVK | GRLAGTFDS | Ctrl | n.d. n.d. n.d. n.d. n.d. n.d. |
| GKSLNTYGIS | VIYSDGRRTAYGDSVK | GRAAGTFDS | GP_Gibbs | n.d. n.d. n.d. n.d. n.d. n.d. |
| GFVLNDYGIS | VIYADGRRTFYGDSVK | GTAAGTFDS | GP_HC | 0.13 0.30 0.09 -0.19 0.25 0.20 |
| GFTLNEYGIS | VIYSDGRRTFYKDSVK | GQAAGTFDS | GP_HC | n.d. -0.86 n.d. -0.22 n.d. -0.72 |
| GFTLNEYGIS | VIYSDGRRTFYGDDVK | GRQAGTFIS | GP_HC | n.d. n.d. n.d. n.d. n.d. n.d. |
| GFELNSYGIS | VIYSDGRRTFYGDSVK | GKNAGTFDS | GPLM_Gibbs | 1.03 0.43 0.20 0.76 0.87 0.47 |
| MFDLNSYGIS | VIYSDGRRTFYSDSVK | GRTAGTFDS | GP_Gen | 1.68 2.51 n.d. 1.62 2.63 2.15 |
| GFTLNDYGIS | VIYSDGRRTFYGDSVK | GKQAGTFDS | GP_HC | 0.94 0.40 0.38 0.20 0.35 0.66 |
| GFTLNEYGIS | VIYSDGRRTFYGDSVK | GRTAGTKES | Ctrl | n.d. n.d. n.d. n.d. n.d. n.d. |
| GFDLNSYGIS | VIYSDGRRTFYGDSVK | GREAGTFDL | GP_Gen | 0.34 0.56 0.33 0.17 0.22 0.22 |
| GETLNSYGIS | VDYSDGRRTFYHDSVK | GRAAGTFDS | Ctrl | n.d. n.d. n.d. n.d. n.d. n.d. |
| GFDLNSYGIS | VIYSDGMRTFYKDSVK | GRTAGTFDS | GP_Gen | 0.12 -0.11 -0.35 -0.07 -0.32 0.48 |
| MFSLNSYGIS | VIYSDGRRTAYGDSVK | GRAAGTFDS | GP_Gen | n.d. 1.96 1.39 2.20 2.21 n.d. |
| GFDLNDYGIS | VIYSDGRRTYYGDSVK | GRAAGTFDS | GP_HC | -0.14 0.20 -0.14 -0.23 0.64 0.14 |
| SFTLESYGIS | VIYADGRRTFYGDSVK | GRAAGTFKS | GP_HC | n.d. n.d. n.d. n.d. n.d. n.d. |
| GFSLNEYGIS | VIYSDGRRTFYGDSVK | GRAAVTFDK | GP_HC | n.d. n.d. n.d. n.d. n.d. n.d. |
| GFKLNEYGIS | VIYSDGRRTFYGDSVK | GKTAGTFDS | GP_Gen | 0.58 0.35 0.31 -0.27 -0.04 -0.08 |
| GFTLNDYGIS | VIYSDGRRTFYIDSVK | GKAAGTFDS | GPLM_Gen | 0.70 0.66 1.92 1.40 1.03 0.85 |
| GFTLESYGIS | VIYSDGRRTFYHDSVK | GNAAGTFDS | GP_Gibbs | 1.90 1.52 0.81 1.20 1.18 0.77 |
| GFDLNSYGIS | VIYSDGKRTFYSDSVK | GRAAGTFDS | GP_Gen | n.d. n.d. n.d. n.d. n.d. 1.86 |
| GFTLDSYGIS | VIYSDGRRTFYGDSVK | GRAAGTFED | GPLM_HC | n.d. 1.73 n.d. 3.73 n.d. 2.99 |
| GFNLNEYGIS | VIYADGKRTFYADSVK | GEAAGTFDS | En_HC | -0.19 -1.02 -1.38 -1.00 -0.90 -1.14 |
| GFTLNSYGIS | VIYSDGRRTFYGDSVK | GAAAGSIDS | Ctrl | n.d. 0.15 n.d. n.d. n.d. 0.76 |
| GFDLNSFGIS | VIYSDGRRTFYGDSVK | GQLAGTFDS | GP_HC | 0.75 0.42 0.92 0.67 0.40 1.41 |
| GFHLNSYGIS | VIYSDGRRTFYADDVK | GRTAGTFDS | GPLM_Gen | -0.14 -0.32 -0.37 -0.43 -0.04 0.27 |
| GFELNEYGIS | VIYSDGRRTMYMDSVK | GRTAGTFDS | GP_Gibbs | 0.50 0.41 0.33 0.38 0.37 0.43 |
| GFSLNEYGIS | VIYSDGRRTFYHDSVK | GRAAGTFDT | GP_Gen | 0.65 0.71 0.04 0.42 0.03 0.17 |
| GFTLNEYGIS | VIYSDGRRTFYGDSVK | GCIAGTFDK | GP_HC | 0.94 1.09 0.82 0.72 0.54 0.59 |
| MFDLNSYGIS | VIYSDGRRTFYGDSVK | GWTAGTFDS | GP_Gen | n.d. n.d. n.d. n.d. n.d. n.d. |
| GFELNTYGIS | VIYSDGRRTFYADSVK | GRLAGTFDS | GP_Gibbs | -0.16 -0.02 -0.29 -0.13 0.06 -0.18 |
| GTTLNSYGKS | VIYSDGRRTFYGNKFK | GRAAGTFDS | Ctrl | n.d. n.d. n.d. n.d. n.d. n.d. |
| GFGLNEYGIS | VIYSDGKRTFYGDSVK | GRTAGTFDS | GPLM_Gibbs | -0.11 -0.45 -0.33 -0.43 0.02 0.13 |
| GFTLNEYGIS | VIYSDGRRTFYTDSVK | GRHAGTFVS | GP_HC | 0.96 0.20 -0.01 0.55 -0.36 1.27 |
| KFNLNSYGIS | VIYSDGRRTFYQDSVK | GEAAGTFDS | GP_Gibbs | n.d. n.d. n.d. n.d. n.d. n.d. |
| GFTLNMYGIS | VIYSDGRRTFYGDSVR | GRAAGTFDS | Ctrl | n.d. 1.42 n.d. 2.32 n.d. 2.60 |
| GFTLNSYGIS | VIYSDGRRTFYKDQVK | GRAAGTFDS | Ctrl | n.d. 0.80 n.d. n.d. n.d. n.d. |
| GFTLNEYGIS | VIYSDGRRTFYTDSVK | GRHAGTFDS | GPLM_HC | 0.63 0.45 0.86 0.84 0.54 1.01 |
| GFSLNNYGIS | VIYSDGRRTFYGDSVK | GRVAGTFDS | GPLM_Gen | 0.62 0.58 0.48 0.64 1.53 0.95 |
| GFTLNSYGIS | VIYSDGRRTFYGDSVK | QRAAGTFDL | Ctrl | n.d. n.d. n.d. n.d. n.d. n.d. |
| GFTLKEYGIS | VIYSDGRRTFYGDSVK | GRAAGTFDQ | GP_HC | n.d. n.d. n.d. n.d. 1.59 n.d. |
| GFTLNSYGIS | VIYSDGRRTFYNDSVK | GRLAGTFDS | Ctrl | n.d. 2.06 2.41 2.24 3.01 2.29 |
| GFELNSYGIS | VIYSDGRRTFYGDSVK | GRQAGTFDK | GP_Gen | n.d. 0.99 1.39 1.47 1.96 1.17 |
| GFTLNSYGIS | VIYSDGRRTFYADDVK | GEAAGTFKS | GP_HC | 2.99 2.64 2.39 2.95 2.54 2.37 |
| GFGLNEYGIS | VIYSDGRRTFYGDSVK | GRIAGTFDS | GP_Gen | 0.33 0.40 0.33 0.37 0.45 0.55 |
| GETPDEYGIS | VIYSDGRRTFYGDSVK | GRAAGTFDS | Ctrl | n.d. n.d. n.d. n.d. n.d. n.d. |
| GFELNSYGIS | VIYADGRRTFYGDSVK | GRAAGTFDL | GP_Gen | -0.63 -0.59 -1.16 -1.16 -0.37 -0.32 |

6 of these entries, quoted again:

| CDR-H1 | CDR-H2 | CDR-H3 | group | log10 Kd (nM) by replicate |
|---|---|---|---|---|
| MFDLNSYGIS | VIYSDGRRTFYGDSVK | GWTAGTFDS | GP_Gen | n.d. n.d. n.d. n.d. n.d. n.d. |
| GETLNSYGIS | VDYSDGRRTFYHDSVK | GRAAGTFDS | Ctrl | n.d. n.d. n.d. n.d. n.d. n.d. |
| GETPDEYGIS | VIYSDGRRTFYGDSVK | GRAAGTFDS | Ctrl | n.d. n.d. n.d. n.d. n.d. n.d. |
| GFTLNSYGIS | VIYSDGRRTFYGDSVK | GAAAGSIDS | Ctrl | n.d. 0.15 n.d. n.d. n.d. 0.76 |
| GFTLNSYGIS | VIYADGRRTFYLDFVK | GRLAGTFDS | Ctrl | n.d. n.d. n.d. n.d. n.d. n.d. |
| GFTLNSYGIS | VIYSDGRRTFYKDQVK | GRAAGTFDS | Ctrl | n.d. 0.80 n.d. n.d. n.d. n.d. |